Consider 30 compounds from patent publication US10227346B2, “Methyl- and trifluoromethyl-substituted pyrrolopyridine modulators of RORC2 and methods of use therof” (Pfizer Inc., priority 2014, dated 2019).

The assay relates to IL-17 production from human Th17 cells. In words: IL-17 production from human Th17 cells.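 Also: purified human CD4+ T cells activated with anti-CD3 plus anti-CD28 and a Th17-inducing cytokine cocktail, with compound at serial concentrations versus no compound.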 The format is cell-based. The note with it: CD4+ T, 144 h.

The term IC50 denotes the concentration that inhibits the measured activity by half. Low values mean greater potency in that assay, high ones weaker potency in that assay.

As for `Cc1c(NC(=O)c2cccc(C#N)c2)cnc2c1c([C@@H]1C[C@H]3CC[C@@H]1CN3C(=O)C1CCCC1)cn2C` (relative stereo) [Example 100, 3-cyano-N-(3-((1R*,4S*,5R*)-2-(cyclopentanecarbonyl)-2-azabicyclo[2.2.2]octan-5-yl)-1,4-dimethyl-1H-pyrrolo[2,3-b]pyridin-5-yl)benzamide], the midpoint of inhibition, the IC50, lay at 10.4 nM.
In the case of `COc1ccc(C(=O)Nc2cnc3c(c(C4CCN(C(=O)[C@@H](C)C(F)(F)F)CC4)cn3C)c2C)cc1C#N` (single isomer, unassigned) [Example 44] it was 17.1 nM; in that of `COc1ccc(C(=O)Nc2cnc3c(c(C4CCN(C(=O)[C@H](C)C(F)(F)F)CC4)cn3C)c2C)cc1C#N` (single isomer, unassigned) [Example 45], 16 nM; in that of `Cc1c(NC(=O)c2cccc(C#N)c2)cnc2c1c(C1CCN(C(=O)[C@@H](C)C(F)(F)F)CC1)cn2C` (single isomer, unassigned) [Example 111], 24.2 nM.
For `COc1cc(C#N)cc(C(=O)Nc2cnc3c(c(C4CCN(C(=O)C5CCCC5)CC4)cn3C)c2C(F)(F)F)c1` [Example 1, 3-cyano-N-(3-(1-(cyclopentanecarbonyl)piperidin-4-yl)-1-methyl-4-(trifluoromethyl)-1H-pyrrolo[2,3-b]pyridin-5-yl)-5-methoxybenzamide] the value was 11.8 nM.
In turn, `Cc1ccc(C(=O)Nc2cnc3c(c(C4CCN(C(=O)C5CCCC5)CC4)cn3C)c2C(F)(F)F)cc1C#N` [Example 2, 3-cyano-N-(3-(1-(cyclopentanecarbonyl)piperidin-4-yl)-1-methyl-4-(trifluoromethyl)-1H-pyrrolo[2,3-b]pyridin-5-yl)-4-methylbenzamide] gave an IC50 of 15.2 nM.
In the case of `COc1ccc(C(=O)Nc2cnc3c(c(C4CCN(C(=O)C5CCCC5)CC4)cn3C)c2C(F)(F)F)cc1C#N` [Example 4, 3-cyano-N-(3-(1-(cyclopentanecarbonyl)piperidin-4-yl)-1-methyl-4-(trifluoromethyl)-1H-pyrrolo[2,3-b]pyridin-5-yl)-4-methoxybenzamide] it was 3.5 nM.
For `COc1ccc(C(=O)Nc2cnc3c(c(C4CCN(C(=O)C(C)C)CC4)cn3C)c2C(F)(F)F)cc1C#N` [Example 6, 3-cyano-N-(3-(1-isobutyrylpiperidin-4-yl)-1-methyl-4-(trifluoromethyl)-1H-pyrrolo[2,3-b]pyridin-5-yl)-4-methoxybenzamide] the value was 5 nM; for `Cc1ccc(C(=O)Nc2cnc3c(c(C4CCN(C(=O)C(C)C)CC4)cn3C)c2C(F)(F)F)cc1C#N` [Example 7, 3-cyano-N-(3-(1-isobutyrylpiperidin-4-yl)-1-methyl-4-(trifluoromethyl)-1H-pyrrolo[2,3-b]pyridin-5-yl)-4-methylbenzamide], 6.2 nM; for `COc1cc(C#N)cc(C(=O)Nc2cnc3c(c(C4CCN(C(=O)C(C)C)CC4)cn3C)c2C(F)(F)F)c1` [Example 8, 3-cyano-N-(3-(1-isobutyrylpiperidin-4-yl)-1-methyl-4-(trifluoromethyl)-1H-pyrrolo[2,3-b]pyridin-5-yl)-5-methoxybenzamide], 14.4 nM.
Take `Cn1cc(C2CCN(C(=O)CC3CCCC3)CC2)c2c(C(F)(F)F)c(NC(=O)c3cccc(C#N)c3)cnc21` [Example 14, 3-cyano-N-(3-(1-(2-cyclopentylacetyl)piperidin-4-yl)-1-methyl-4-(trifluoromethyl)-1H-pyrrolo[2,3-b]pyridin-5-yl)benzamide]: the IC50 amounted to 8.7 nM.
In the case of `CC(C)CC(=O)N1CCC(c2cn(C)c3ncc(NC(=O)c4cccc(C#N)c4)c(C(F)(F)F)c23)CC1` [Example 15, 3-cyano-N-(1-methyl-3-(1-(3-methylbutanoyl)piperidin-4-yl)-4-(trifluoromethyl)-1H-pyrrolo[2,3-b]pyridin-5-yl)benzamide] it was 9.9 nM; in that of `CC(C)C(C)(C)CC(=O)N1CCC(c2cn(C)c3ncc(NC(=O)c4cccc(C#N)c4)c(C(F)(F)F)c23)CC1` [Example 17, 3-cyano-N-(1-methyl-4-(trifluoromethyl)-3-(1-(3,3,4-trimethylpentanoyl)piperidin-4-yl)-1H-pyrrolo[2,3-b]pyridin-5-yl)benzamide], 10.7 nM.
With `Cn1cc(C2CCN(C(=O)C3CCCCC3)CC2)c2c(C(F)(F)F)c(NC(=O)c3cccc(C#N)c3)cnc21` [Example 19, 3-cyano-N-(3-(1-(cyclohexanecarbonyl)piperidin-4-yl)-1-methyl-4-(trifluoromethyl)-1H-pyrrolo[2,3-b]pyridin-5-yl)benzamide], the IC50 amounted to 12.6 nM.
`C[C@@H](C(=O)N1CCC(c2cn(C)c3ncc(NC(=O)c4cccc(C#N)c4)c(C(F)(F)F)c23)CC1)C(C)(C)C` [Example 21, (R)-3-cyano-N-(1-methyl-4-(trifluoromethyl)-3-(1-(2,3,3-trimethylbutanoyl)piperidin-4-yl)-1H-pyrrolo[2,3-b]pyridin-5-yl)benzamide] had an IC50 of 3.4 nM. This IC50 is about 3.7-fold lower than that of the compound before.
For the compound `C[C@H](C(=O)N1CCC(c2cn(C)c3ncc(NC(=O)c4cccc(C#N)c4)c(C(F)(F)F)c23)CC1)C(C)(C)C` [Example 22, (S)-3-cyano-N-(1-methyl-4-(trifluoromethyl)-3-(1-(2,3,3-trimethylbutanoyl)piperidin-4-yl)-1H-pyrrolo[2,3-b]pyridin-5-yl)benzamide], the IC50 turned out to be 5.9 nM.
In the case of `COc1ccc(C(=O)Nc2cnc3c(c(C4CCN(C(=O)[C@H](C)C(C)(C)C)CC4)cn3C)c2C(F)(F)F)cc1C#N` [Example 30, (R)-3-cyano-4-methoxy-N-(1-methyl-4-(trifluoromethyl)-3-(1-(2,3,3-trimethylbutanoyl)piperidin-4-yl)-1H-pyrrolo[2,3-b]pyridin-5-yl)benzamide] it was 3.9 nM.
On to `COc1ccc(C(=O)Nc2cnc3c(c(C4CCN(C(=O)[C@@H](C)C(C)(C)C)CC4)cn3C)c2C(F)(F)F)cc1C#N` [Example 31, (S)-3-cyano-4-methoxy-N-(1-methyl-4-(trifluoromethyl)-3-(1-(2,3,3-trimethylbutanoyl)piperidin-4-yl)-1H-pyrrolo[2,3-b]pyridin-5-yl)benzamide], for which half-maximal inhibition (IC50) was put at 4.7 nM.
In the case of `Cc1c(NC(=O)c2cccc(C#N)c2)cnc2c1c(C1CCN(C(=O)[C@H](C)C(C)(C)C)CC1)cn2C` [Example 32, (R)-3-cyano-N-(1,4-dimethyl-3-(1-(2,3,3-trimethylbutanoyl)piperidin-4-yl)-1H-pyrrolo[2,3-b]pyridin-5-yl)benzamide] it was 3.4 nM; in that of `Cc1c(NC(=O)c2cccc(C#N)c2)cnc2c1c(C1CCN(C(=O)[C@H]3C[C@H]4CC[C@@H]3C4)CC1)cn2C` [Example 35, N-(3-(1-((1R,2S,4S)-bicyclo[2.2.1]heptane-2-carbonyl)piperidin-4-yl)-1,4-dimethyl-1H-pyrrolo[2,3-b]pyridin-5-yl)-3-cyanobenzamide], 14.3 nM; in that of `Cc1c(NC(=O)c2cccc(C#N)c2)cnc2c1c(C1CCN(C(=O)[C@@H]3C[C@@H]4CC[C@H]3C4)CC1)cn2C` [Example 36, N-(3-(1-((1S,2R,4R)-bicyclo[2.2.1]heptane-2-carbonyl)piperidin-4-yl)-1,4-dimethyl-1H-pyrrolo[2,3-b]pyridin-5-yl)-3-cyanobenzamide], 6.6 nM.
In the case of `COc1ccc(C(=O)Nc2cnc3c(c(C4CCN(C(=O)[C@H](C)C(C)(C)C)CC4)cn3C)c2C)cc1C#N` [Example 38, (R)-3-cyano-N-(1,4-dimethyl-3-(1-(2,3,3-trimethylbutanoyl)piperidin-4-yl)-1H-pyrrolo[2,3-b]pyridin-5-yl)-4-methoxybenzamide] it was 11 nM; in that of `COc1cc(C#N)cc(C(=O)Nc2cnc3c(c(C4CCN(C(=O)[C@H](C)C(C)(C)C)CC4)cn3C)c2C)c1` [Example 39, (R)-3-cyano-N-(1,4-dimethyl-3-(1-(2,3,3-trimethylbutanoyl)piperidin-4-yl)-1H-pyrrolo[2,3-b]pyridin-5-yl)-5-methoxybenzamide], 11.2 nM.
For `COc1ccc(C#N)cc1C(=O)Nc1cnc2c(c(C3CCN(C(=O)[C@H](C)C(C)(C)C)CC3)cn2C)c1C` [Example 40, (R)-5-cyano-N-(1,4-dimethyl-3-(1-(2,3,3-trimethylbutanoyl)piperidin-4-yl)-1H-pyrrolo[2,3-b]pyridin-5-yl)-2-methoxybenzamide], the IC50 came to 7.9 nM.
In the case of `COCCOc1ccc(C(=O)Nc2cnc3c(c(C4CCN(C(=O)[C@H](C)C(C)(C)C)CC4)cn3C)c2C)cc1C#N` [Example 43, (R)-3-cyano-N-(1,4-dimethyl-3-(1-(2,3,3-trimethylbutanoyl)piperidin-4-yl)-1H-pyrrolo[2,3-b]pyridin-5-yl)-4-(2-methoxyethoxy)benzamide] it was 6.4 nM; in that of `COc1cc(C#N)cc(C(=O)Nc2cnc3c(c(C4CCN(C(=O)C5CCCC5)CC4)cn3C)c2C)c1` [Example 52, 3-cyano-N-(3-(1-(cyclopentanecarbonyl)piperidin-4-yl)-1,4-dimethyl-1H-pyrrolo[2,3-b]pyridin-5-yl)-5-methoxybenzamide], 12 nM.
Take `Cc1c(NC(=O)c2cc(O)cc(C#N)c2)cnc2c1c(C1CCN(C(=O)C3CCCC3)CC1)cn2C` [Example 53, 3-cyano-N-(3-(1-(cyclopentanecarbonyl)piperidin-4-yl)-1,4-dimethyl-1H-pyrrolo[2,3-b]pyridin-5-yl)-5-hydroxybenzamide]: the IC50 came to 121 nM.
In the case of `COCCOc1cc(C#N)cc(C(=O)Nc2cnc3c(c(C4CCN(C(=O)C5CCCC5)CC4)cn3C)c2C)c1` [Example 57, 3-cyano-N-(3-(1-(cyclopentanecarbonyl)piperidin-4-yl)-1,4-dimethyl-1H-pyrrolo[2,3-b]pyridin-5-yl)-5-(2-methoxyethoxy)benzamide] it was 36.4 nM; in that of `COc1cc(C#N)cc(C(=O)Nc2cnc3c(c([C@@H]4CCN(C(=O)C5CCCC5)C(C)(C)C4)cn3C)c2C)c1` [Example 58, (R)-3-cyano-N-(3-(1-(cyclopentanecarbonyl)-2,2-dimethylpiperidin-4-yl)-1,4-dimethyl-1H-pyrrolo[2,3-b]pyridin-5-yl)-5-methoxybenzamide], 9.3 nM; in that of `COc1ccc(C(=O)Nc2cnc3c(c([C@@H]4CCN(C(=O)C5CCCC5)C(C)(C)C4)cn3C)c2C)cc1C#N` [Example 60, (R)-3-cyano-N-(3-(1-(cyclopentanecarbonyl)-2,2-dimethylpiperidin-4-yl)-1,4-dimethyl-1H-pyrrolo[2,3-b]pyridin-5-yl)-4-methoxybenzamide], 15 nM.
